Substitutions are numbered along the chain they refer to.
Experiments:
[1] = target: T1, CRFR1 (Homo sapiens, UniProt P34998); assay: cAMP accumulation in CHO cells stably transfected with CRFR1 and treated with CRF; type: cell-based
T1 construct: expressed in transfected cells
T1 sequence (P34998 24-415): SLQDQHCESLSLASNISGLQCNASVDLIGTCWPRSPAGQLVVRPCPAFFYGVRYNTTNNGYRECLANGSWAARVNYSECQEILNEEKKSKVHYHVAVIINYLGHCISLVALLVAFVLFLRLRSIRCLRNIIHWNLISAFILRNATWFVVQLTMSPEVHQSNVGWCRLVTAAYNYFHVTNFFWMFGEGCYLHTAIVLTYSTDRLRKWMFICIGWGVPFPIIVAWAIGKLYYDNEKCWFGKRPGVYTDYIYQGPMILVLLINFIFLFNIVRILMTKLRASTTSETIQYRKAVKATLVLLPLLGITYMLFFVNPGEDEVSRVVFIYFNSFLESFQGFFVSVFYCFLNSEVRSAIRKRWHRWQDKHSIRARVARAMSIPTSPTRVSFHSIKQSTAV
Description: In addition to inhibiting CRF receptor binding, a candidate's CRF receptor antagonist activity may be established by the ability of the compound to antagonize an activity associated with CRF. For example, CRF is known to stimulate various biochemical processes, including adenylate cyclase activity. Therefore, compounds may be evaluated as CRF antagonists by their ability to antagonize CRF-stimulated adenylate cyclase activity by, for example, measuring cAMP levels. The inhibition of CRF-stimulated adenylate cyclase activity, determined by the assay described by G. Battaglia et al., Synapse 1:572 (1987), provides an assay for determining a compound's ability to antagonize CRF activity. Accordingly, CRF receptor antagonist activity may be determined by assay techniques which generally include an initial binding assay followed by such a cAMP screening protocol.
(§1) Binding assays with cells expressing human CRFR1 are carried out as described in the Chen et al. P.N.A.S., supra. The affinities of test peptides for CRFR1 and CRFR2b stably expressed in CHO cells were determined by competitive displacement of ^125I-(Nle^21, Tyr^32) ovine CRF (for CRFR1) or of [^125I-Tyr^o-]Ucn (for CRFR2b) as described.

Protein sequences, listed by entry. Tags and fused reporters are not part of them. Residues count along the entry.
UniProt P35353, 24-415: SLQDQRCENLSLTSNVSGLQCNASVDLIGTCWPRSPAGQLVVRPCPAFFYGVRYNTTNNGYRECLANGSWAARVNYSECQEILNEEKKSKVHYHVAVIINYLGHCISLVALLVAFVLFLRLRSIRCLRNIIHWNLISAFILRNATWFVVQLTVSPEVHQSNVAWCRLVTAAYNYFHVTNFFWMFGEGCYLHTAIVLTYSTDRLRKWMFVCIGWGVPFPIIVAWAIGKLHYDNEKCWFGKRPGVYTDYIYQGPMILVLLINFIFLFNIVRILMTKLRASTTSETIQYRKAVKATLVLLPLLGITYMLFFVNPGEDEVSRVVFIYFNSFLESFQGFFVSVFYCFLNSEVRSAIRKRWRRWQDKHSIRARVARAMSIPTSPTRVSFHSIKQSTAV

[2] = target: T2, human CRFR2b (Homo sapiens, UniProt Q13324); assay: Competitive displacement binding assay, stably transfected CHO cells expressing human CRFR2b; settings: in words; binding to CRFR2 compared with CRFR1
T2 construct: expressed in transfected cells
T2 sequence (Q13324 1-438 isoform Q13324-2): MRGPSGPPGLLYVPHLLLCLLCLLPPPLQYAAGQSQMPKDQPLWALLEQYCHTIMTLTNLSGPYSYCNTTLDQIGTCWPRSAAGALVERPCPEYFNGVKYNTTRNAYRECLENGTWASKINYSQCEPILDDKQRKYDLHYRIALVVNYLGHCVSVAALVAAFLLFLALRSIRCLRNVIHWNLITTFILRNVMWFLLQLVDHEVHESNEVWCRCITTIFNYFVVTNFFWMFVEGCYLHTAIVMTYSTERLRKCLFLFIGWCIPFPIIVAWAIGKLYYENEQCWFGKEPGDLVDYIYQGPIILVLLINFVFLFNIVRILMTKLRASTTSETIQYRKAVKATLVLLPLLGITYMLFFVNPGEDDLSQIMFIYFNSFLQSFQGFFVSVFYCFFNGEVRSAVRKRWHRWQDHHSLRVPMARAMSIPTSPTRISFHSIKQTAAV
Experimental: CRF receptors have now been cloned and are disclosed in the aforementioned Chen et al. article, in Perrin, M., et al., P.N.A.S, 92, 2969–2973 (March 1995), and in Lovenberg, T., et al., P.N.A.S., 92, 836–840 (January 1995). Binding affinity is a term used to refer to the strength of interaction between ligand and receptor. […] Ki (inhibitory binding affinity constant) is determined using a “standard” or “tracer” radioactive ligand and thus measures the displacement of the tracer from the receptor or binding protein; it is most properly expressed with reference to such tracer. However, so long as these assays are carefully performed under specific conditions with relatively low concentrations of receptor or the like, the calculated Ki will be substantially the same as its dissociation constant KD. […] It is particularly efficient to test for Ki because only a single tracer need be labelled, e.g. radioiodinated. […] Those reported hereinafter are derived using radioactively labeled [Tyr Glu^1, Nle^17]-Svg as a radioligand.
as §1

[3] = target: T3, CRFR1 (Rattus norvegicus, UniProt P35353); settings: Ruhmann et al. P.N.A.S. 95 (1998); cited from earlier work
T3 sequence (P35353 24-415): T1 sequence (P34998 24-415) with H6R, S9N, A13T, I16V, M153V, G163A, I209V, Y229H, H356R

[4] = system: CRFR2β; settings: Ruhmann et al. P.N.A.S. 95 (1998); cited from earlier work

(cyclo 31–34)[Ac-D-2Nal^11, His^12, CML^13,39, Nle^17, Glu^31, Lys^34]-sauvagine(11–40) [Example 6]
antagonism of CRF activity with respect to CRFR1 (cAMP accumulation) [1]: little or no effect
binding selectivity, CRFR2 versus CRFR1 [2]: very good selectivity

(cyclo 31–34)[Ac-D-3 Pal^11, His^12, CML^13,39, Nle^17, Glu^31, Lys^34]-sauvagine(11–40) [Example 7]
antagonism of CRF activity with respect to CRFR1 (cAMP accumulation) [1]: little or no effect
binding selectivity, CRFR2 versus CRFR1 [2]: very good selectivity

(cyclo 31–34)[Ac-D-Cpa^11, His^12, CML^13,39, Nle^17, Glu^31, Lys^34]-sauvagine(11–40) [Example 5]
antagonism of CRF activity with respect to CRFR1 (cAMP accumulation) [1]: little or no effect
binding selectivity, CRFR2 versus CRFR1 [2]: very good selectivity

(cyclo 31–34)[Ac-D-Leu^11, His^12, CML^13,39, Nle^17, Glu^31 Lys^34]-sauvagine(8–40) [Example 3]
antagonism of CRF activity with respect to CRFR1 (cAMP accumulation) [1]: little or no effect
binding selectivity, CRFR2 versus CRFR1 [2]: very good selectivity

(cyclo 31–34)[Ac-D-Phe^11, His^12, CML^13,39, Nle^17, Glu^31, Orn^34]-sauvagine(11–40) [Example 8]
antagonism of CRF activity with respect to CRFR1 (cAMP accumulation) [1]: little or no effect
binding selectivity, CRFR2 versus CRFR1 [2]: very good selectivity

(cyclo 31–34)[Ac-D-Tyr^11, His^12, CML^13,39, Nle^17, Glu^31, Lys^34]-sauvagine(11–40) [Example 4]
antagonism of CRF activity with respect to CRFR1 (cAMP accumulation) [1]: little or no effect
binding selectivity, CRFR2 versus CRFR1 [2]: very good selectivity

[D-Phe^11, His^12]-sauvagine (11–40)
competitive antagonism relative to the then best antagonist, CRFR1 [3]: about 30%
competitive antagonism relative to the previously best reported compound, CRFR2β [4]: close to equal antagonism
